# scFv variants of Ab-14 (light chain) against a SARS-CoV-2 spike peptide

Antigen: PDVDLGDISGINAS, a 14-residue peptide of the SARS-CoV-2 spike HR2 region.

The variants keep the heavy chain, the linker and the frameworks of Ab-14 (scFv order VH, a (GGGGS)3 linker, VL).
VH: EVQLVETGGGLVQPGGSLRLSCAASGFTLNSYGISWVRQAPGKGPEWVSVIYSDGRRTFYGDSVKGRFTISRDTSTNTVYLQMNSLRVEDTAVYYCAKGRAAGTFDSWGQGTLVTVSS
VL: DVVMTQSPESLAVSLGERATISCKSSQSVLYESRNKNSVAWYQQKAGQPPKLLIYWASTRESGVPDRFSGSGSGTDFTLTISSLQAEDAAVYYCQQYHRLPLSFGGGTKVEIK

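Phage display of a naive human antibody library on the peptide gave the parent. Designed CDR sequences, proposed from the first random library and measured here. Their group label is 14L_En_Gen (En: ensemble of fine-tuned language models; Gen: genetic algorithm). AlphaSeq pools MATa yeast showing the antibodies with MATalpha yeast showing the peptide. Binding brings cells together so that they mate, and sequencing counts the barcode pairs among the diploids. Scores were corrected for input abundance and mapped to Kd with protein pairs of known affinity run in the same pool. There are six technical replicates.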

Sequences are complete VL domains. The read-out is the apparent dissociation constant on a log10 scale (nM): the lower, the stronger. "n.d." marks a missing value. The strain was present, yet no cells mated with the target were sequenced in that replicate, which points to weak or no binding. The range of this assay differs from that of the first round, and the authors advise against merging the two. The parent sequence was in this pool as ten entries: three were never detected, three once, and four in most replicates, with averages from 0.34 to 2.37. The authors averaged sequences with at least three values out of six and counted those with two or fewer as poor binders. Three control strains display no target. For all light chain designs, 4% of the pairings with them gave a signal, with a median of 2.64 and one signal in twenty below 1.59, so weak values seen in few replicates may be background. Also given: how often the same scFv was detected with the empty control strains, with their mean in brackets.

| VL | log10 Kd (nM) by replicate | signal with controls |
|---|---|---|
| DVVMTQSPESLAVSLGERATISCKLTSITGTEKVRGNNVAWYQQKAGQPPKLLIYEMETREDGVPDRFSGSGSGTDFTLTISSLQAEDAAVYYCQQYNRLPLSFGGGTKVEIK | 1.13 / 1.46 / 0.78 / 1.36 / 0.74 / 1.22 | 1 of 18 (1.95) |
| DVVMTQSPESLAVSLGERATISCTIGGTLMYGMRNRSNVAWYQQKAGQPPKLLIYEVSQRLNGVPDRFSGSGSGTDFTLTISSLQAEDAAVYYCQQYDRLPLEFGGGTKVEIK | 2.49 / 1.39 / n.d. / 1.14 / 2.62 / 2.33 | 1 of 18 (1.69) |
| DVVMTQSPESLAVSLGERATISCKIGATLNTLYEKQNNVAWYQQKAGQPPKLLIYDLVERENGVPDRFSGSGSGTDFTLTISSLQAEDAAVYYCQQYHRLPLSFGGGTKVEIK | 0.35 / 0.39 / 0.18 / 0.34 / 0.40 / 0.20 | 0 of 18 |
| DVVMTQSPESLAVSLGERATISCHLSAMWGLESVKHNNVAWYQQKAGQPPKLLIYENNTREDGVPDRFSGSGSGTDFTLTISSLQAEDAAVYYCQQYDRLPLSFGGGTKVEIK | 1.39 / 1.64 / 1.45 / 1.51 / 1.17 / 2.39 | 0 of 18 |
| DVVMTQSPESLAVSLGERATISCMISQLMNLGQFAINSVAWYQQKAGQPPKLLIYQAEIRNAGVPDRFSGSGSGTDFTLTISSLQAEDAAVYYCQQYDRLPLIFGGGTKVEIK | 2.90 / 1.07 / n.d. / 1.98 / 1.26 / 0.90 | 0 of 18 |
| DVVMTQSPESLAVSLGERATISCMISQLYNMGTFAINSVAWYQQKAGQPPKLLIYQASLRNEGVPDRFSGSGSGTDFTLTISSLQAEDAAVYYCQQYDRLPLTFGGGTKVEIK | n.d. / n.d. / n.d. / 2.27 / n.d. / n.d. | 0 of 18 |
| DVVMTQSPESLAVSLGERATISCHITYGMMVHGRHSKSIAWYQQKAGQPPKLLIYQAETRAKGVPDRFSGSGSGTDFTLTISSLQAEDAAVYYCQQYDRLPLAFGGGTKVEIK | 1.69 / 2.17 / 1.79 / 1.94 / 1.69 / 2.21 | 0 of 18 |
| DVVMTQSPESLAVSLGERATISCTIGMFMDNLMQNRNNVAWYQQKAGQPPKLLIYDTSTLGNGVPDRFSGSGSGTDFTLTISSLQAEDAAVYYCQSYDRLPLSFGGGTKVEIK | 1.63 / 1.23 / 1.19 / 1.49 / 1.21 / 2.09 | 0 of 18 |
| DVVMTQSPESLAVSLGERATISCMISQMMNMGQFAINSVAWYQQKAGQPPKLLIYQASERSNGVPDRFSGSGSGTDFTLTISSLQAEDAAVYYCQQYDRLPLVFGGGTKVEIK | 1.95 / 1.83 / n.d. / 2.32 / n.d. / 1.85 | 0 of 18 |
| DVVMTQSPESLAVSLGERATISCKLTSTMRFEQKKKNNIAWYQQKAGQPPKLLIYEVSTRSKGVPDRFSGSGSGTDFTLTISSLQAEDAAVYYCQQYNRLPLAFGGGTKVEIK | 1.97 / 2.37 / 1.91 / 1.43 / 2.29 / 2.19 | 3 of 18 (2.64) |
| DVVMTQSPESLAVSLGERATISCMISQLYNMGTFAINSVAWYQQKAGQPPKLLIYQASTRNEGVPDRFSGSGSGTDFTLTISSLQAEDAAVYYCQQYDRLPLMFGGGTKVEIK | 1.53 / 1.14 / 2.19 / 2.21 / 2.10 / 2.32 | 2 of 18 (2.20) |
| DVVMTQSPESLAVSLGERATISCHITYGMYVSGRHTSNIAWYQQKAGQPPKLLIYQAEERAKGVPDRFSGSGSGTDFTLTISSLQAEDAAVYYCQQYDRLPLIFGGGTKVEIK | 0.49 / 0.81 / 0.66 / 0.45 / 0.60 / 0.65 | 0 of 18 |
| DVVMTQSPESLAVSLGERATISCTISQMTSLFSQTINNVAWYQQKAGQPPKLLIYEVSTREPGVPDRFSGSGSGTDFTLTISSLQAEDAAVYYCQQYDRLPLSFGGGTKVEIK | 0.85 / 0.63 / 0.86 / 0.51 / 0.82 / 0.78 | 3 of 18 (4.33) |
| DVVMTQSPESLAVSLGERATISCKISQMQRVGSTHGNSIAWYQQKAGQPPKLLIYEEQTRAKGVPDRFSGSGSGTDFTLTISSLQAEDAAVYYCQQYHRLPLSFGGGTKVEIK | 1.28 / 1.38 / 1.38 / 0.40 / 0.72 / 1.76 | 4 of 18 (2.13) |
| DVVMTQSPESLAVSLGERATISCMISQILNMGQFAINSVAWYQQKAGQPPKLLIYQASIRCNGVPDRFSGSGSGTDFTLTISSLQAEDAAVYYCQQYDRLPLAFGGGTKVEIK | 1.17 / 1.68 / 0.90 / 1.58 / 1.81 / 1.32 | 1 of 18 (3.06) |
| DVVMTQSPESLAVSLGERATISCKLSSISGTEKVHGNNVAWYQQKAGQPPKLLIYEMETRERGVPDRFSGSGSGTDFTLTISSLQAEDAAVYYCQQYNRLPLAFGGGTKVEIK | -0.14 / 0.12 / 0.11 / -0.06 / -0.12 / -0.27 | 0 of 18 |
| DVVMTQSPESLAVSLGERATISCHMSMLTLGGMRHRNSVAWYQQKAGQPPKLLIYQMTTRENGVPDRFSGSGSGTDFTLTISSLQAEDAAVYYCQQYDRLPLAFGGGTKVEIK | 0.84 / 1.10 / 1.09 / 1.33 / 1.49 / 1.75 | 1 of 18 (2.81) |
| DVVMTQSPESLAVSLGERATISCKLSSITGHMSMSKNNVAWYQQKAGQPPKLLIYEMVTRENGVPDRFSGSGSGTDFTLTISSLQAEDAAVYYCQQYNRLPLSFGGGTKVEIK | 1.31 / 1.38 / 0.83 / 1.95 / 1.74 / 1.90 | 0 of 18 |
| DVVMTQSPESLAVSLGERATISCHMSMLTLGGMRHRNSVAWYQQKAGQPPKLLIYQMTTRENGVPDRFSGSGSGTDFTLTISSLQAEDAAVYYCQQYDHLPLSFGGGTKVEIK | 0.92 / 1.02 / 0.87 / 0.87 / 1.05 / 1.15 | 2 of 18 (2.91) |
| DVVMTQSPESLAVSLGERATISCIISQLMNLGQFAINSVAWYQQKAGQPPKLLIYQATIRNSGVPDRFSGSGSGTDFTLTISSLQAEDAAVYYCQQYDRLPLAFGGGTKVEIK | n.d. / n.d. / n.d. / n.d. / n.d. / n.d. | 1 of 18 (2.10) |
| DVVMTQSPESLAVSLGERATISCMVYQAAMMGTSTRNSIAWYQQKAGQPPKLLIYNAQMRPDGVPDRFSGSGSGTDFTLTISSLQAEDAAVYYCQQYHRLPLMFGGGTKVEIK | 1.05 / 1.05 / 1.01 / 1.53 / 1.00 / 1.29 | 0 of 18 |
| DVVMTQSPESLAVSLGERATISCKIGMTLNQLYEKANNVAWYQQKAGQPPKLLIYDLVERVNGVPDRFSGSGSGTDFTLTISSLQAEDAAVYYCQQYHRLPLSFGGGTKVEIK | 0.23 / 0.19 / 0.52 / 0.00 / 0.26 / 0.20 | 0 of 18 |
| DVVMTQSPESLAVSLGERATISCIVSQLMLWGMHAKNSIAWYQQKAGQPPKLLIYEAQTRLNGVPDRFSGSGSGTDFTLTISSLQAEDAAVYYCQQYDRLPLIFGGGTKVEIK | 1.84 / 3.37 / n.d. / n.d. / n.d. / n.d. | 0 of 18 |

From the AlphaSeq antibody data of Li et al. 2023 (doi:10.1038/s41467-023-39022-2), copy in the FLAb collection.